{"sequences": {"note": "The chains behind the UniProt entries cited, without tags or fusion partners. Where a name states a change or a piece, a line headed by the entry shows the natural chain unless it says otherwise.", "UniProt P41145": "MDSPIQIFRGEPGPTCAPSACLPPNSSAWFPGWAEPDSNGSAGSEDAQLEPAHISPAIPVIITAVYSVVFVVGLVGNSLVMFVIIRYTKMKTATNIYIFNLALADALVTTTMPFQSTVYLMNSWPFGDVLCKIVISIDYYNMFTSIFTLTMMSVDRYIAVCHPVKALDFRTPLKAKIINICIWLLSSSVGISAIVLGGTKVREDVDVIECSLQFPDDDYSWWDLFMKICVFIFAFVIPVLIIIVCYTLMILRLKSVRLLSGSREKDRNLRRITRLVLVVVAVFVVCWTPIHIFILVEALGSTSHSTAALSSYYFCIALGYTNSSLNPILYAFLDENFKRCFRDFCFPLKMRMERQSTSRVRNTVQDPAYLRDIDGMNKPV"}, "source": "paper PMC7052193", "about": "“Nanobody-enabled monitoring of kappa opioid receptor states” (Nature Communications, 2020)", "target": "KOR (Homo sapiens, UniProt P41145)", "test": "Tango arrestin recruitment assay", "assay_type": "cell-based", "conditions": "apo (no Nb6 DNA)"}
{"smiles": "CO[C@]12CC[C@@]3(C[C@@H]1C(C)(C)O)[C@H]1Cc4ccc(O)c5c4[C@@]3(CCN1CC1CC1)[C@H]2O5", "values": [{"measurement": "Emax, Tango arrestin recruitment", "result": "55 ± 2", "unit": "%"}]}
